# AlphaSeq binding of Ab-95 light chain variants to a spike HR2 peptide

Data: MIT Lincoln Laboratory AlphaSeq set, Engelhart et al. 2022, doi:10.1038/s41597-022-01779-4, as distributed in FLAb.

Binding partner: SARS-CoV-2 spike HR2 peptide, sequence PDVDLGDISGINAS.

Parent scFv Ab-95: VH joined to VL by the linker GGGGSGGGGSGGGGS. Changes lie in the light chain CDRs alone.
VH: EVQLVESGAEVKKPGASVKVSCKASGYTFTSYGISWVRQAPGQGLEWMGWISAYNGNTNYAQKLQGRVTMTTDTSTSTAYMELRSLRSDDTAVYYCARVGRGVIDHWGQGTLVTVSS
VL: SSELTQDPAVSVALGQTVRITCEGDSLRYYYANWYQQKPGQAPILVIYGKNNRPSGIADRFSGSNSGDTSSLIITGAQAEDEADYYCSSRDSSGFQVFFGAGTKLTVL

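Phage display of a naive human antibody library on the peptide gave the parent. Library AAYL52 holds single substitutions and randomly drawn double and triple substitutions in the CDRs. Affinity was read by AlphaSeq, a pooled yeast mating assay with surface-displayed partners. The frequency of each diploid, read from paired DNA barcodes, reflects how well the two displayed proteins bind. Scores were corrected for input abundance and mapped to Kd with protein pairs of known affinity run in the same pool. Mating was done three times.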

Variants are written as CDR1, CDR2 and CDR3 of the light chain (limits as in the source). Parent: EGDSLRYYYAN, GKNNRPS, SSRDSSGFQVF.
Values are log10 of the apparent Kd in nM; lower means stronger binding.
The mean shown is taken over the replicates in which the pair was detected.
Where no diploid with the target was found in any replicate, the entry reads "nd": below detection, most likely a poor binder, though not proof of it.
Order: sorted from the lowest average up, undetected variants last.
Parent in this assay: reference entry 2.31, copy in this library 2.25.
As a blank, each scFv also met three strains without target: over library AAYL52, 28% of these pairings were detected, typically at 3.91 and seldom below 2.90.

CDR-L1 | CDR-L2 | CDR-L3 | mean, log10 nM | seen in
EGDSLRLSYAN | GKNNRPS | SSRDASGFQVF | 0.95 | 3 of 3
EGDSNRYYYTN | GKNNRPS | SSRDSSGMQVF | 1.70 | 3 of 3
EGDSLRYYEAN | GKNNRPC | SSRDSSGFAVF | 1.70 | 3 of 3
EGDSLRYCNAN | GKNNRSS | SSRDSSGFQVF | 1.83 | 3 of 3
EGDSLRYKYAN | GDNNRPS | SSRCSSGFQVF | 1.85 | 3 of 3
EGDSLRYRYAN | GKNNRPS | SSRDSSGHQVF | 1.92 | 3 of 3
EGDSLRYYYAN | GKNNRPS | CSFDSSKFQVF | 1.99 | 3 of 3
EGDSLRYYYAN | GKNNRNS | SSRDSNGFGVF | 2.27 | 3 of 3
EGDSLRSYYAN | GKNGRPS | SSRDSYGFQVF | 2.36 | 3 of 3
EGDSLRYYYAN | GKNNRPS | SSRDSSGKRVR | 2.45 | 3 of 3
KGDSLRYYYAN | GKNNRPS | SMRDSSGFQVS | 2.46 | 3 of 3
EGDSLMYYYAN | GKNNRPS | SSRDSPAFQVF | 2.47 | 3 of 3
EGDSLRYYYAN | GKANRLS | SSRDWSGFQVF | 2.66 | 1 of 3
VGDSLRQYYAN | GKNNRPS | SSVDSSGFQVF | 2.67 | 3 of 3
EGDSMRYYAAN | GKNNRPS | SSRDSSGHQVF | 2.73 | 3 of 3
EGDSLRYYYAN | GDNNQPS | SSRDSSGFQVH | 2.74 | 3 of 3
EGTSLRYYYAN | GKGNRPS | SSRDSSGPQVF | 2.75 | 3 of 3
EHDSLRYYYAN | GKNNRPS | SSRDSGGFQVF | 2.91 | 3 of 3
EGDSLRYYYAN | GKNNRPS | SSRDSSFFQVW | 2.91 | 3 of 3
EGYSLRYYYAN | GKNNRPS | SVRGSSGFQVF | 2.94 | 3 of 3
EHDSLRPYYAN | GKNNRPS | SSRGSSGFQVF | 2.98 | 3 of 3
EGDHLRYYYAN | GWNNRPS | SSRDESGFQVF | 3.00 | 1 of 3
EGDSLRYYYAN | GHQNRPS | SSRDSSGFQVF | 3.02 | 3 of 3
EGDSLRYYYAN | GKQNRPS | STRDSSGVQVF | 3.05 | 3 of 3
EGDSLRYYYAN | GKNNRPF | SSRDSSGQYVF | 3.16 | 3 of 3
QGDSLRYYYAN | GKNNPPS | SSRDSSGFQEF | 3.18 | 3 of 3
EGDSLRYYYAN | SKNYRPS | SSRDQSGFQVF | 3.20 | 3 of 3
GGDSLRYYYAN | GKNNRPS | SSRDISGFQCF | 3.21 | 2 of 3
EGDSLRYYYAN | GKNFRPS | ISRDSSGFQCF | 3.21 | 2 of 3
EGDSLRPYVAN | GKNNRPS | SDRDSSGFQVF | 3.24 | 2 of 3
EGDSPRQYYVN | GKNNRPS | SSRDSSGFQVF | 3.25 | 3 of 3
EGDSLRYCYAN | GLNNRPS | SRRDSSGFQVF | 3.26 | 3 of 3
EGDMLRYYYAI | GKNNRPS | SERDSSGFQVF | 3.28 | 2 of 3
EDDSHRYFYAN | GKNNRPS | SSRDSSGFQVF | 3.29 | 3 of 3
ESDSLGYYYAN | GKNNRPS | NSRDSSGFQVF | 3.30 | 3 of 3
EIDSLRYYYAA | GKNNRPS | SSRDSSLFQVF | 3.35 | 3 of 3
EGDPLRYYYAN | GKNMRPS | SSRDSSGFWVF | 3.40 | 2 of 3
EGDSLRYRYWN | GKNNRYS | SSRDSSGFQVF | 3.46 | 1 of 3
EGDSLYYYYAN | GKNNRPY | SSGDSSGFQVF | 3.47 | 2 of 3
EGDSLRYYDAN | GWNNRTS | SSRDSSGFQVF | 3.47 | 3 of 3
EWDSLRYYYAL | GKNNRWS | SSRDSSGFQVF | 3.47 | 3 of 3
EGDHLRYYYAN | TKNNRPS | SSRDSSGFQVF | 3.50 | 1 of 3
EGDSLRYYYAN | GKNFRPS | SSRDSSGFPVF | 3.53 | 2 of 3
ESCSLRYYYAN | GKNNRVS | SSRDSSGFQVF | 3.53 | 1 of 3
EADSLRYYYAN | GKNNRPS | SSSDSSGFQKF | 3.58 | 1 of 3
IEDSLRYYYAN | GKNNRLS | SSRDSSGFQVF | 3.61 | 1 of 3
EHDWLRYYYAN | GKNNRPS | SSRDSSGSQVF | 3.62 | 3 of 3
AGDSLRYYYAN | GKNNRPS | SSRYSSGMQVF | 3.64 | 3 of 3
EGDSLRYYYAN | GKNNRPS | SSADSSGFQVQ | 3.68 | 3 of 3
EGGSLRYYYAN | GKENRPS | SSRDSSGFQLF | 3.70 | 2 of 3
EGMSLRYYYAN | GKNNRPS | SSRDSSSFQVA | 3.76 | 2 of 3
EGDSLRYYYAN | GKNNYPS | SSQDSSGHQVF | 3.78 | 1 of 3
EGGSLRYYYAN | GPNNRPS | SSRDSSLFQVF | 3.89 | 3 of 3
EGDSLRYYCAN | GKNNRPS | SSRFSSGFFVF | 3.94 | 2 of 3
EMDSLRYYVAN | GKNNRCS | SSRDSSGFQVF | 3.96 | 2 of 3
EGDSLRYYYTN | GKNNRPS | SMRDMSGFQVF | 4.01 | 2 of 3
EGDSLRYYYAN | GKFNNPS | SSRDSKGFQVF | 4.06 | 2 of 3
EGDSLRYYYIN | GKNNRPS | SSRDSSGRQMF | 4.08 | 1 of 3
EGDSLRYYYNN | GKNNRNS | SSRDSSPFQVF | 4.09 | 2 of 3
EGSSLRYYYAN | MKNNRPS | SSRDMSGFQVF | 4.09 | 2 of 3
EGDSLRYYYAN | AKNNRPS | SSGDSSSFQVF | 4.12 | 2 of 3
QGDSLRYYYAN | GKNNRPS | FSRDKSGFQVF | 4.13 | 3 of 3
EGDSLRYYYAN | GKNNRPS | KSRYSRGFQVF | 4.25 | 1 of 3
EGDSLRYYYHN | GKNNRPS | SSQDSSGEQVF | 4.29 | 2 of 3
EADSYRLYYAN | GKNNRPS | SSRDSSGFQVF | 4.31 | 2 of 3
EGDQLRYYYAN | GKNNRPS | LSRDSSGFQCF | 4.32 | 2 of 3
EGDSLRYYYRN | GKNNRPK | SSRDSYGFQVF | 4.34 | 3 of 3
EGDILRYYEAN | GKNNRPS | SSRDSSKFQVF | 4.46 | 1 of 3
EGDSLRYYYCN | MKNNRPS | SSRDSSGFQLF | 4.86 | 2 of 3
EGDSLRYYYAN | IKNNRCS | SQRDSSGFQVF | 4.89 | 2 of 3
EGDKLRYYYAN | GKNARPS | SSRDHSGFQVF | 4.99 | 2 of 3
EGDSLRYYYAN | CKNNRPS | SSRDISGFQVR | 5.21 | 2 of 3
ENDSLRYYSAN | GKNNEPS | SSRDSSGFQVF | 5.24 | 2 of 3
EGDSLRYYYAN | CKNNRPS | DSRDSSGFQDF | nd | 0 of 3
PGDSLRYYIAN | GKENRPS | SSRDSSGFQVF | nd | 0 of 3
YGDSLRYYYAN | GKNNIPS | SSRDSSGFQWF | nd | 0 of 3
ESDSVRYYYAN | GKNNDPS | SSRDSSGFQVF | nd | 0 of 3
EGDSLRCYYAW | GKNNRPS | SSRDSVGFQVF | nd | 0 of 3
EGDSLRYYYAN | GWRIRPS | SSRDSSGFQVF | nd | 0 of 3

Repeated from above, the 9 best binders with a signal in all replicates:

CDR-L1 | CDR-L2 | CDR-L3 | mean, log10 nM | seen in
EGDSLRLSYAN | GKNNRPS | SSRDASGFQVF | 0.95 | 3 of 3
EGDSNRYYYTN | GKNNRPS | SSRDSSGMQVF | 1.70 | 3 of 3
EGDSLRYYEAN | GKNNRPC | SSRDSSGFAVF | 1.70 | 3 of 3
EGDSLRYCNAN | GKNNRSS | SSRDSSGFQVF | 1.83 | 3 of 3
EGDSLRYKYAN | GDNNRPS | SSRCSSGFQVF | 1.85 | 3 of 3
EGDSLRYRYAN | GKNNRPS | SSRDSSGHQVF | 1.92 | 3 of 3
EGDSLRYYYAN | GKNNRPS | CSFDSSKFQVF | 1.99 | 3 of 3
EGDSLRYYYAN | GKNNRNS | SSRDSNGFGVF | 2.27 | 3 of 3
EGDSLRSYYAN | GKNGRPS | SSRDSYGFQVF | 2.36 | 3 of 3